Data published in patent US7727980B2, “Tricyclic androgen receptor modulator compounds and methods” (priority 2001, dated 2010).
Read-outs that look alike come from different tables or passages of the source.

The chains behind the UniProt entries cited, without tags or fusion partners. Where a name states a change or a piece, a line headed by the entry shows the natural chain unless it says otherwise.
UniProt P10275: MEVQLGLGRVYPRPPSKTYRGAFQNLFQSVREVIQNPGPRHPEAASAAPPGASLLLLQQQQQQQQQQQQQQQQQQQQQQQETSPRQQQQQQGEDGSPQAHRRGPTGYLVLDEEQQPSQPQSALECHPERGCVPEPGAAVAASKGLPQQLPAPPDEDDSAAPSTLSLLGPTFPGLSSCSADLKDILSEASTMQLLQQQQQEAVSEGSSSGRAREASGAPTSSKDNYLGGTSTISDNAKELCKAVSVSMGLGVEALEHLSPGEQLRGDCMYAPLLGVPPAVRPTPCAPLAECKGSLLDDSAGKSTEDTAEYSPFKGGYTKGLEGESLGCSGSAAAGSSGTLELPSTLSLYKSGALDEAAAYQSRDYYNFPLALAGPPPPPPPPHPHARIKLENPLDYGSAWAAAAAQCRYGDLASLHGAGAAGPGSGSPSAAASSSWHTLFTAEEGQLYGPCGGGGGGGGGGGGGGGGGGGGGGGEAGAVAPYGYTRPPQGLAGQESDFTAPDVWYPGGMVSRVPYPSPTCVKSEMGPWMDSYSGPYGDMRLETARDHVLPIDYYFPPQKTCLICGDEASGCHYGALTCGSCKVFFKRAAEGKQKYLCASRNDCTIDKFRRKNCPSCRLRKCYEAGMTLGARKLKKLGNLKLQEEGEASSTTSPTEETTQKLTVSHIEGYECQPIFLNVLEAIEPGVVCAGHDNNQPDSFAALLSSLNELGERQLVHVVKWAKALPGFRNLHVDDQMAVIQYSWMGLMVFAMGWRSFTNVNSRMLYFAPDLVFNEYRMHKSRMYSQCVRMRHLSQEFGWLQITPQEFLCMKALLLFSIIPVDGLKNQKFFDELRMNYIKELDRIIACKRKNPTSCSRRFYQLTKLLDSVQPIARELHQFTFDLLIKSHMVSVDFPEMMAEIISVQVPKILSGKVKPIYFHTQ

How the values were obtained:
[1] = target: T1, human AR (Homo sapiens, UniProt P10275); assay: Co-transfection assay, AR antagonist activity in presence of DHT, CV-1 cells; type: cell-based; parameters: expressed in transfected cells; host or cells: CV-1 cells (African green monkey kidney fibroblasts), transient transfection with pRShAR; conditions: for IC50: antagonist potency or IC50, DHT at its EC50 concentration; for AR Antagonist CV-1 Cells Efficacy (%): percent maximal inhibition, DHT at its EC50 concentration
[2] = target: T1, human AR; assay: Co-transfection assay, AR agonist activity, CV-1 cells; type: cell-based; parameters: expressed in transfected cells; host or cells: CV-1 cells (African green monkey kidney fibroblasts), transient transfection with pRShAR; conditions: for AR Agonist CV-1 Cells Efficacy (%): percent maximal response relative to reference agonist DHT
[3] = target: T1, human AR; assay: AR whole cell competitive binding assay (3H-DHT), transfected COS-1 cells; parameters: expressed in transfected cells; transient transfection with pRShAR; conditions: 1 nM 3H-DHT, Cheng-Prusoff from IC50
[4] = agonist potency or EC50, read-out: AR Agonist CV-1 Cells Potency
[5] = AR Agonist CV-1 Cells Potency (nM), agonist potency or EC50

Compound | IC50 [1] | AR Antagonist CV-1 Cells Efficacy (%) [1] | EC50 [2, 4] | AR Agonist CV-1 Cells Efficacy (%) [2] | Ki [3] | EC50 [2, 5]
5-Methyl-6-acetyl-7-(2,2,2-trifluoroethyl)-4-trifluoromethyl-7H-pyrrolo[3,2-f]quinolin-2(1H)-one [Compound 166] | > 10000 nM | na (na = not active (i.e. efficacy of <20 and potency of >10,000)) | 24 nM | 96% | 17 nM | –
O=c1cc(C(F)(F)F)c2c3c(ccc2[nH]1)N(Cc1ccoc1)C1CCCC31 (racemic) [Compound 126, (±)-4c,5,6,7,7a(cis),8-Hexahydro-8-(3-furanylmethyl)-4-trifluoromethyl-cyclopentano[g]pyrrolo[3,2-f]quinolin-2(1H)-one] | – | – | – | – | – | 11 nM
CCN1c2ccc3[nH]c(=O)cc(C(F)(F)F)c3c2CCC1(C)C [Compound 108, 8-Ethyl-5,6,7,8-tetrahydro-7,7-dimethyl-4-trifluoromethylpyridino[3,2-f]quinolin-2(1H)-one] | – | – | – | – | – | 24 nM
CC1CCc2cc3[nH]c(=O)cc(C(F)(F)F)c3cc2N1CC1CC1 (centres unmarked) [Compound 195, 4-Trifluoromethyl-7-methyl-6-cyclopropylmethyl-6,7,8,9-tetrahydropyrido[2,3-g]quinolin-2(1H)-one] | – | – | – | – | – | 11 nM
O=c1cc(C(F)(F)F)c2cc3c(cc2[nH]1)CCCN3CC1CC1 [Compound 201, 4-Trifluoromethyl-6-cyclopropylmethyl-6,7,8,9-tetrahydropyrido[2,3-g]quinolin-2(1H)-one] | – | – | – | – | – | 11 nM
(±)-6,7-Dihydro-6-ethyl-4-trifluoromethyl-8H-pyrano[3,2-g]quinolin-2(1H)-one [Compound 216] | 4300 nM | 28% | 11 nM | 55% | 8.1 nM | –
